Here are results for one compound from patent US20090041897A1, “Transparent, concentrated liquid nutritional supplement composition” (priority 2007, published 2009).

This data set in a line: solubility, turbidity and stability of ingredients in water. Type of data set: physicochemical. As to conditions: minerals considered for the concentrate. Here is the method: In the embodiment of the current invention, each ingredient is screened for solubility in water and for producing transparent liquid without any turbidity or observed opaqueness. Each ingredient or nutrient is evaluated at suitable concentration (based on actual usage level) in 100 ml deionized water enclosed in glass bottle and checked for turbidity. Only non turbidity producing materials (estimated at 25 NTU or less) were selected. Visual evaluation also conducted to ensure clear liquids are obtained. Solutions with an estimated 30 NTG and above are eliminated as potential ingredients. Bottles were also checked for precipitated solids at 0, 2, 4, 6, 8, 10 and 24 hours at room temperature. If precipitate is observed, the ingredient/nutrient is rendered unusable for producing appealing liquid nutritional supplement. Furthermore, ingredients are evaluated in a final diluted liquid nutritional supplement and/or diluents to ensure that dilution will not change the physical appearance of concentrates. […] Each ingredient or nutrient is evaluated at suitable concentration (based on actual usage level) in 100 ml deionized water enclosed in glass bottle and checked turbidity. […] Furthermore, ingredients are evaluated in a final diluted liquid nutritional supplement to ensure that dilution will not change the physical appearance of concentrates. […]

Structures are written as SMILES.

`[Ca+2]` [calcium]: the “effect on clarity of concentrate and finished liquid nutritional supplement” value was “induce cloudiness and turbidity”; the solubility entry is given as “not soluble”.
